Values quoted from earlier work in US20160130659A1.

Molecular target: recombinant human GST-Syk (Homo sapiens, UniProt P43405)
Conditions: read-out: rhSyk (nM), rhSyk activity (IC50); HTRF, recombinant human SYK fusion protein; representative compounds of WO 2012/154519

Cc1cc(Nc2nccc(C)n2)cc(-c2cnc(C[C@]3(O)CC[C@H](C(=O)O)CC3)s2)c1
IC50: 318 nM
